Source: ChEMBL document CHEMBL5316272, “Structural and Functional Landscape of FAD-Dependent Histone Lysine Demethylases for New Drug Discovery” (J Med Chem, 2023)

Molecular target: LSD1/CoREST complex (Homo sapiens, UniProt O60341)
Assay: Inhibition of human LSD1-CoREST expressed in Escherichia coli assessed as dissociation constant

Kd: 7.78 µM
Structure (SMILES): COc1cc2nc(NCCCN(C)C)nc(N(C)C)c2cc1OC
